By UniProt entry, the sequences of proteins in these tests, tags left out. Where a name states a change or a piece, a line headed by the entry shows the natural chain unless it says otherwise. Residues count along the entry.
UniProt O15530, 51-556: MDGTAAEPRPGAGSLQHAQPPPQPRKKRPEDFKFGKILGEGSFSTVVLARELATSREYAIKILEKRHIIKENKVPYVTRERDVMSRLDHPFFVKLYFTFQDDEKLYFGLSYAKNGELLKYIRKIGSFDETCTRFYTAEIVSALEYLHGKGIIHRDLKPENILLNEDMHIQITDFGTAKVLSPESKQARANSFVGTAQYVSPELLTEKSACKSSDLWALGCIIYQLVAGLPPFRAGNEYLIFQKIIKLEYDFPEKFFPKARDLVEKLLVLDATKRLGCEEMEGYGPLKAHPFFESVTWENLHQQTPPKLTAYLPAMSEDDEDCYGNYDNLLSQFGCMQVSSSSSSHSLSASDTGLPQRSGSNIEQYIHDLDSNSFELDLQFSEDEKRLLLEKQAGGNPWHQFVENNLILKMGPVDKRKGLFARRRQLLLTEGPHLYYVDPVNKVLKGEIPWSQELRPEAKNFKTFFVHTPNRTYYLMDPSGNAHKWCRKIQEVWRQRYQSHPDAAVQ

In patent US8664236B2, “1H-pyrrolo[2,3 b]-pyridine derivatives” (Merck Patent GmbH, priority 2010, dated 2014):

Key:
[1] = molecular target: PDK1 (His6-PDK1(Δ1-50)) (Homo sapiens (Human), UniProt O15530); assay: Test for the inhibition of PDK1 (enzymatic, flashplate, 33P-ATP); assay type: biochemical; conditions: enzymatic PDK1 inhibition assay
Method: 4. Test for the Inhibition of PDK1
The experimental batches are carried out in a flashplate system with 384 wells/microtitration plate.
In each case, the PDK1 sample His6-PDK1(Δ1-50) (3.4 nM) (“His6” disclosed as SEQ ID NO: 2), the PDK1 substrate biotin-bA-bA-[…]-IADWC (SEQ ID NO: 3) (400 nM), 4 μM ATP (with 0.2 μCi of ^33P-ATP/well) and the test substance in 50 μl of conventional experimental solution per well are incubated at 30° C. for 60 min. The test substances are employed in corresponding concentrations (if desired in a dilution series). The control is carried out without test substance. The reaction is stopped using standard methods and washed. The activity of the kinase is measured via the incorporated radioactivity in top count. […]
The radioactivity (decompositions per minute) of the blank value (no use of test substance in the presence of staurosporine) is subtracted from all other radioactivity values. The controls (kinase activity without test substance) are set equal to 100 percent and all other radioactivity values (after subtracting the blank value) are expressed set in relation thereto (for example in % of the control).
IC50 values (50% inhibition) are determined with the aid of statistics programmes, such as, for example, RS1.

[2] = molecular target: PDK1 kinase in PC3 cells (PKB phosphorylation at Thr 308) (Homo sapiens (Human), UniProt O15530); assay: Cellular testing of PDK1 kinase inhibitors in PC3 cells (Luminex, phospho-T308-PKB); assay type: cell-based; conditions: PKB phosphorylation at Thr 308 in PC3 cells
Method: Method for the Cellular Testing of PDK1 Kinase Inhibitors in PC3 Cells
The cellular assay for the determination of the PDK1 kinase activity is carried out as a Luminex assay in the 96-well format. PC3 cells are sown at 20,000 cells per well in 100 μl of medium (45% of […]/45% of Ham's F12/10% of FCS) and incubated on the following day for 30 min with a serial dilution of the test substance (7 concentrations) under serum-free conditions. The cells are subsequently lysed using 90 μl of lysis buffer (20 mM tris/HCl pH 8.0, 150 mM NaCl, 1% of NP40, 10% of glycerol, 1% of phosphatase inhibitor I, 1% of phosphatase inhibitor II, 0.1% of protease inhibitor cocktail III, 0.01% of benzonase) per well, and the lysates are separated off from insoluble cell constituents by means of centrifugation through a 96-well filter plate (0.65 μm). The lysates are incubated overnight at 4° C. with shaking with Luminex beads to which an anti-total PKB antibody is coupled. The detection is carried out on the following day by addition of a phospho-T308-PKB antibody and a species-specific peroxidase-labelled secondary antibody. […] The values of the batches treated with test substance are calculated therefrom as percentage of control, and IC50 values are determined by means of RS1.

Compound	IC50 [1] [nM]	IC50 [2] [nM]
3-({2-Amino-6-[5-(1-methyl-1H-pyrazol-4-yl)-1H-pyrrolo[2,3-b]-pyridin-3-yl]pyrimidin-4-yl}phenylamino)propionamide [A35]	17	23000
CC(C)n1cc(-c2cnc3[nH]cc(-c4cc(N(CCO)c5ccccc5Cl)nc(N)n4)c3c2)cn1 [A15, 2-[{2-Amino-6-[5-(1-isopropyl-1H-pyrazol-4-yl)-1H-pyrrolo[2,3-b]pyridin-3-yl]pyrimidin-4-yl)-(2-chlorophenyl)amino]-ethanol]	17	–
